Values of other authors in US9205086B2, “Cancer therapy using a combination of a Hsp90 inhibitory compounds and a EGFR inhibitor” (Synta Pharmaceuticals Corp., priority 2010, dated 2015).

Tested on: EGFR
Details: subset of patients with mutations in the tyrosine kinase domain of EGFR; Lynch, et al.; cited from earlier work

COc1cc2ncnc(Nc3ccc(F)c(Cl)c3)c2cc1OCCCN1CCOCC1 [Gefitinib]
efficacy in lung cancer patients: highly efficacious
